{"source": "patent US11707503B2", "about": "“Modulators of complement activity” (Ra Pharmaceuticals, Inc., priority 2015, dated 2023)", "key": {"C5a": {"biological_target": "C5a", "assay": "C5a enzyme immunoassay (EIA) on human RBC hemolysis assay supernatant", "assay_type": "biochemical", "details": "hemolysis supernatant diluted 1:50; read-out: IC50, inhibition of formation of C5a", "description": "(§1) Inhibition of the production of C5a and the membrane attack complex (MAC) were measured by MicroVue EIA kits (Quidel Corporation, San Diego, Calif.).\nas §1"}, "[1]": {"test_system": "membrane attack complex (MAC)", "assay": "Membrane attack complex (MAC) EIA on human RBC hemolysis assay supernatant", "assay_type": "biochemical", "details": "hemolysis supernatant diluted 1:5; read-out: IC50, inhibition of formation of the MAC", "description": "as §1, §1"}, "[2]": {"assay": "Pharmacokinetic studies in rat (IV and SC)", "details": "R3183 versus R3176", "description": "In the figure, circles represent concentrations obtained after SC dose and squares represent concentrations obtained after IV dose.\nBlood samples were collected at indicated time points, processed into plasma, and analyzed for the indicated compound by LC-MS. […] Blood samples were collected at indicated time points, processed into plasma, and analyzed for the indicated compound by LC-MS."}, "[3]": {"test_system": "thrombin-induced complement pathway", "assay": "Inhibition of hemolysis in the thrombin-induced complement pathway (C5, C6, thrombin, then C7, C8, C9)", "assay_type": "cell-based", "description": "These diluted samples were mixed with antibody-sensitized sheep erythrocytes (Complement Technology, Tyler, Tex.) in a 96-well microtitre plate (USA Scientific, Ocala, Fla.) and incubated at 37° C. for 5 minutes. C7 (Complement Technology, Tyler, Tex.) was then added to the wells to achieve a concentration of 15 nM and the plate was returned to 37° C. for 15 minutes. A complex of C8 (10 nM; Complement Technology, Tyler, Tex.) and C9 (25 nM; Complement Technology, Tyler, Tex.) was then added to the assay mixture and the samples were incubated for 30 minutes at 37° C.\nThe reaction was stopped with the addition of hirudin. The diluted samples were mixed with antibody-sensitized sheep erythrocytes and then incubated for 5 minutes at 37° C. Purified C7 was added and incubated for 15 minutes at 37° C. A complex of purified C8 and C9 was then added and the mixture was incubated for 30 minutes at 37° C."}, "[4]": {"test_system": "alternative pathway of complement activation", "assay": "WIESLAB complement system screening kit, alternative pathway", "assay_type": "biochemical", "details": "serum samples, read-out: IC50, inhibition of the alternative pathway of complement activation"}, "C5 [5]": {"test_system": "C5", "assay": "Hemolysis assay with pig serum", "assay_type": "cell-based, pigs"}, "C5 [6]": {"test_system": "C5", "assay": "Hemolysis assay with dog serum", "assay_type": "cell-based, dogs"}, "primate C5 protein": {"test_system": "primate C5 protein", "assay": "Pharmacodynamic and pharmacokinetic multi-dose study in non-human primates with ex vivo hemolysis", "description": "This group was also monitored for 10 days after receiving the final dose. Plasma samples were obtained prior to each dose, immediately post-dose and twice thereafter each day until daily dosing was completed. Samples were taken periodically thereafter for 10 days.\nThe inhibition of complement-mediated MAC formation in the same plasma samples was examined using an established ex vivo assay in which plasma was diluted 1:100 and incubated with activated sheep red blood cells (Complement Technology, Tyler, Tex.). At each time-point, the hemolytic activity was determined as an indicator of active serum complement (see FIGS. 12A and 12B)."}, "C5 [7]": {"test_system": "C5"}}, "data": [{"smiles": "CCCCCCCCCCCCCCCC(=O)NCCCC[C@H](NC(=O)[C@@H](NC(=O)[C@@H]1CCCN1C(=O)[C@H](Cc1ccc(O)cc1)NC(=O)[C@H](CCC(=O)O)NC(=O)[C@H](Cc1c[nH]c2ncccc12)NC(=O)[C@H](Cc1ccc(O)cc1)NC(=O)[C@@H](NC(=O)[C@H](CC(=O)O)N(C)C(=O)[C@@H]1CC(=O)NCCCC[C@H](NC(C)=O)C(=O)N[C@@H](C(C)C)C(=O)N[C@@H](CCC(=O)O)C(=O)N[C@@H](CCCNC(=N)N)C(=O)N[C@@H](Cc2ccccc2)C(=O)N1)C(C)(C)C)C1CCCCC1)C(=O)O", "note": "[Compound R3183, [cyclo(1,6)]Ac-K-V-E-R-F-D-(N—Me)D-Tbg-Y-azaTrp-E-Y-P-Chg-(Lys-C16)]", "values": [{"measurement": "IC50", "setting": "C5a", "result": 11, "unit": "nM"}, {"measurement": "IC50", "setting": "[1]", "result": 6.9, "unit": "nM"}, {"measurement": "increase in exposure (AUC) by lipidation, intravenous route", "setting": "[2]; 2 mg/kg IV", "result": 2.1, "unit": "fold"}, {"measurement": "increase in exposure (AUC) by lipidation, subcutaneous route", "setting": "[2]; 15 mg/kg SC", "result": 2.7, "unit": "fold"}, {"measurement": "inhibition of hemolysis by the thrombin-induced complement pathway in words", "setting": "[3]", "result": "strong inhibition"}, {"measurement": "IC50", "setting": "[4]", "result": 12.5, "unit": "nM"}, {"measurement": "activity in serum from pigs", "setting": "C5 [5]", "result": "active"}, {"measurement": "activity in the serum of dogs", "setting": "C5 [6]", "result": "less active"}, {"measurement": "inhibition of hemolytic activity ex vivo", "setting": "primate C5 protein; low dose group 0.3 mg/kg daily, some plasma concentrations between 2000 and 4000 ng/ml", "result": 90, "unit": "%"}, {"measurement": "inhibition of hemolytic activity ex vivo", "setting": "primate C5 protein; low dose group, most plasma concentrations above 4000 ng/ml", "result": "greater than 90%"}, {"measurement": "time after final treatments that inhibition of hemolytic activity was detected", "setting": "primate C5 protein; non-human primates, daily dosing for 7 days", "result": "up to 10 days"}, {"measurement": "activity in the serum of rodents", "setting": "C5 [7]", "result": "less active"}]}]}
